Molecules are shown by their SMILES.

The species entered for the test is Homo sapiens. Description: Selectivity ratio of Ki for human dopamine D2 long receptor to Ki for human dopamine D3 receptor.
Regarding `COc1ccccc1N1CCC2(CCN(CCCSc3nnc(-c4ccccc4)n3C)CC2)C1`, the Ratio Ki was 315.
As for `COc1ccccc1N1CCN(CCCSc2nnc(-c3ccccc3)n2C)CC1`, the Ratio Ki stood at 40.2.
Then `COc1ccccc1N1CCC2(CCN(CCCSc3nnc(-c4ccccc4)n3C)CC2)CC1`, with 905.

Source of the values: ChEMBL document CHEMBL4028897 (J Med Chem, 2017).
